Molecules are shown by their SMILES. This is a selection; strong and weak results do not stand in their true shares. Some results for these compounds are left out of this collection, so the calls shown say nothing about other tests. The source made the active and inactive calls.

Amino acid sequences for entries named in this document (tags omitted).
UniProt P09923, whole entry: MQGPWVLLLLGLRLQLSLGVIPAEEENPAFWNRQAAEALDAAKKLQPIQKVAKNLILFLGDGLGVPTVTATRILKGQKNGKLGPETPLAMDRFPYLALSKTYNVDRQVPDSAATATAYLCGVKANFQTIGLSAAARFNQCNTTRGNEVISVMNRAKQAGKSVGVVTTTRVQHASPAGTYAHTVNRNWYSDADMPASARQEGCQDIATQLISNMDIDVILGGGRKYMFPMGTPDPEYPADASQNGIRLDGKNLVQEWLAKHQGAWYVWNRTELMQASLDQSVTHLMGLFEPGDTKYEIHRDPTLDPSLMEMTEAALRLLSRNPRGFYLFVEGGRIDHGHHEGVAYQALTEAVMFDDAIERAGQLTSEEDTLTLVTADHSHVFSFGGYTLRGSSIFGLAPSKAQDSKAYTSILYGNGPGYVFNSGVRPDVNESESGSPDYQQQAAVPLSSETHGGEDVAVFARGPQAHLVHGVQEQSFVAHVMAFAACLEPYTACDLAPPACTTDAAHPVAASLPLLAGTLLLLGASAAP

The results in this text go back to PubChem BioAssay AID2524 (Sanford-Burnham Center for Chemical Genomics, 2010).

This test has as its target Intestinal-type alkaline phosphatase (Homo sapiens) (UniProt P09923). Put plainly: enzymatic activation of intestinal alkaline phosphatase – biochemical, luminescence, uHTS, primary screen (AID 2524). The settings on record: purified human IAP, CDP-Star luminescence, 30 min; at 10 µM; stronger effect = higher value; 1 = vehicle-only enzyme, 0 = enzyme-free background.
As for `COc1cc(C(=O)NCC2(N(C)C)CCCCC2)c([N+](=O)[O-])cc1OC`, the activation factor was inactive: 1.12.
As for `CN(C)C1(CNC(=O)c2ccc(Br)cc2)CCCCC1`, the figure is inactive: 1.1; as for `O=C(NCC1(N2CCCCC2)CCCCC1)c1cccc(Cl)c1`, inactive: 1.01.
For `COc1ccc(Cl)cc1C(=O)NCC1(N(C)C)CCCCC1`, the activation factor is inactive: 1.04.
Take `COc1cccc(C(=O)NCC2(N3CCCCC3)CCCCC2)c1`: the activation factor is inactive: 0.972.
In the case of `O=C(OC1CN2CCC1CC2)C(CO)(c1ccccc1)c1ccccc1` (centres undefined), the activation factor is inactive: 0.961.
With `CN(C)c1cccc(C(=O)NCC2(N(C)C)CCCCC2)c1`, the activation factor is inactive: 1.09.
Consider `CC(C)Oc1ccc(C(=O)NCC2(N(C)C)CCCCC2)cc1`, for which the activation factor was inactive: 1.14.
As to `COc1ccc(Br)c(C(=O)NCC2(N3CCCCC3)CCCCC2)c1`, the activation factor was inactive: 1.02.
To `CN1[C@@H]2CC[C@H]1CC(OC(=O)C(O)(c1ccccc1)c1ccccc1)C2` (some centres undefined) belongs inactive: 0.866; to `O=C(NCC1(N2CCCCC2)CCCCC1)c1cc([N+](=O)[O-])ccc1Cl`, inactive: 0.982.
Take `Cc1ccc(C(=O)NCC2(N3CCCCC3)CCCCC2)cc1`: the activation factor is inactive: 0.92.
To `CC(C)N1C(=O)CC2(CCN(CCOC(=O)C(O)(c3ccccc3)c3ccccc3)CC2)C1=O` belongs inactive: 0.713.
Turning to `COc1cc(SC)ccc1C(=O)NCC1(N(C)C)CCCCC1`, the activation factor was inactive: 1.07.
For `CCN(CC)CC(C)C(C)OC(=O)C(O)(c1ccccc1)c1ccccc1` (centres undefined), the activation factor was inactive: 1.02.
On to `CN(C)C1CCCC1OC(=O)C(O)(c1ccccc1)c1ccccc1` (centres undefined), for which the activation factor is inactive: 1.04.
As for `CN(C)c1ccc(C(=O)NCC2(N(C)C)CCCCC2)cc1`, the activation factor was inactive: 1.09.
On to `Cc1ccccc1C(=O)NCC1(N2CCCCC2)CCCCC1`, for which the activation factor was inactive: 1.02.
Turning to `O=C(NCC1(N2CCCCC2)CCCCC1)c1cccc(Br)c1`, the activation factor is inactive: 1.3.
Turning to `Cc1cc(C(=O)NCC2(N3CCCCC3)CCCCC2)ccc1[N+](=O)[O-]`, the activation factor is inactive: 0.919.
In the case of `CCN1CCCC(OC(=O)C2(O)c3ccccc3C=Cc3ccccc32)C1` (centres undefined), the activation factor is inactive: 0.989.
For `COc1ccc(C(=O)NCC2(N(C)C)CCCCC2)cc1`, the activation factor is inactive: 0.938.
As for `O=C(NCC1(N2CCCCC2)CCCCC1)c1cc(F)c(F)cc1Cl`, the activation factor is inactive: 1.02.
For the compound `C=CCN1CCN(CCOC(=O)C(O)(c2ccccc2)c2ccccc2)CC1`, the activation factor is inactive: 1.05.
